Test results reported in publication PMC4482215, “Structure and dynamics of the membrane attaching nitric oxide transporter nitrophorin 7” (2015).

By UniProt entry, the sequences of proteins in these tests, tags left out. Residues count along the entry.
UniProt Q6PQK2, 21-205 limits assumed: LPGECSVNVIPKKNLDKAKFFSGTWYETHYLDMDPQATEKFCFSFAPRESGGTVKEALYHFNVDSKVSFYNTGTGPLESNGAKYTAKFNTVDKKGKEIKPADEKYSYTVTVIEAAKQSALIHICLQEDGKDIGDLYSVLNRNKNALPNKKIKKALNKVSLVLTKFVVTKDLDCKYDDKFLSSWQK

How the values were obtained:
nitrophorin 7 (NP7) [1] = molecular target: T1, nitrophorin 7 (NP7) (Rhodnius prolixus, UniProt Q6PQK2); assay: X-ray crystallography (crystal soak); details: pH 7.8
nitrophorin 7 (NP7) [2] = molecular target: T1, nitrophorin 7 (NP7); assay: X-ray crystallography (heme-reconstituted protein); details: pH 5.8; 1.42 Å; proximal ligand His60; iron photoreduced to Fe(II) in the beam; heme B orientation

For NCCc1c[nH]cn1, the “X-ray crystallography (crystal soak)” value (nitrophorin 7 (NP7) [1]; 1.60 Å, coordinates heme iron, salt bridge to Asp32, heme B orientation) was “the binding of Hm is accomplished not only through the coordination of heme iron”.

c1c[nH]cn1 was tested, and the “X-ray crystallography (crystal soak)” value (nitrophorin 7 (NP7) [1]; 1.80 Å, binds heme iron, water-bridged to Asp32, heme A orientation) was “When ImH is bound, the missing ethylamine is compensated by H-bonding to a water molecule”.

With C=CC1=C(C)C2=Cc3c(C=C)c(C)c4[n]3[Fe][n]3c(c(C)c(CCC(=O)O)c3=CC3=NC(=C4)C(C)=C3CCC(=O)O)=CC1=N2 the “X-ray crystallography (heme-reconstituted protein)” value (nitrophorin 7 (NP7) [2]) was “hosts the heme cofactor including the ligation by the proximal His60 residue”.
